In the assay the target is T1, PTP1B (Homo sapiens, UniProt P18031).
T1 sequence (P18031 1-435): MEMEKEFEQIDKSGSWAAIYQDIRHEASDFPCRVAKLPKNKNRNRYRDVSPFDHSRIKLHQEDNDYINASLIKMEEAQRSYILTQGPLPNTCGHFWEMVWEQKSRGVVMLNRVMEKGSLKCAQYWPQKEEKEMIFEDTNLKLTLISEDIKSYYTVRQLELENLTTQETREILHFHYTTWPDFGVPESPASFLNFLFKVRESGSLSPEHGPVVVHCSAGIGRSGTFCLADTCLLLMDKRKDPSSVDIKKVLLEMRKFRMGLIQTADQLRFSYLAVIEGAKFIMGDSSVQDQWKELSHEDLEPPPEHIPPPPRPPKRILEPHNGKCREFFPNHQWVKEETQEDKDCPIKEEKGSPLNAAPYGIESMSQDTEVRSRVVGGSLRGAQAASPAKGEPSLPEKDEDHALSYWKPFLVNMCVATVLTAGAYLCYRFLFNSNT
Nature of the assay: Enzyme kinetics studies, type of inhibition (Lineweaver-Burk). The settings on record: kinetic parameters from the 3a inhibition study.

The term Vmax denotes the top rate of the reaction or transport when substrate is in excess. `CC1=C(/C=C/C(C)=C/C=C/C(C)=C\C(=O)O)C(C)(C)CCC1` [3a, 13‐cis‐retinoic acid]: the Vmax was 36.06 ± 1.47 mM/min.

The values above are taken from paper PMC11617665, “Virtual and in Vitro Screening Employing a Repurposing Approach Reveal 13‐cis‐Retinoic Acid is a PTP1B Inhibitor” (Chemmedchem, 2024).
